Results on 1 compound are retold here after patent US6395885B1, “Use of lithium salts of anionic dyes to enhance their light-fastness” (Avecia Limited, priority 1998, dated 2002).

This data set is described as follows: Aqueous solubility of the dyes. Conditions: pH 9.5, 20° C. The data set is classed as physicochemical. As to the method: The weight % solubility of Dye (A), Dye (B) and the individual sodium and lithium salts of Dyes (A) and (B) in water at a pH of 9.5 and a temperature of 20° C. were measured.

Consider `COc1cc(N=Nc2cccc(S(=O)(=O)O)c2)ccc1NC(=O)Nc1ccc(N=Nc2cccc(S(=O)(=O)O)c2)cc1OC` [Comparative (3), C.I. Direct Yellow 132], for which the “Solubility (wt % in water at pH 9.5)” value turned out to be 11 wt %.
